Experimental data from PubChem BioAssay AID504454 (NMMLSC, 2011).
Only a part is listed here, and it is no random draw. Activity calls are given as the source filed them.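 How the source made its calls: active means response above a set limit, near 3 SD of response in nonfluorescent compounds (cut at about 42% in these data); inactive means the rest.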

molecular target: Beta-2 adrenergic receptor (Homo sapiens) (UniProt P07550); experiment: agonist-induced loss of surface beta2AR – cell-based, FAP fluorogen, flow cytometry, primary screen (AID 504454); details: Am2.2-beta2AR cells, FAP receptor internalization, stronger effect = higher value, concentration not given here

| SMILES | response |
| --- | --- |
| CN(C)C(=O)c1cc([N+](=O)[O-])cc2c1-c1c(cc([N+](=O)[O-])cc1[N+](=O)[O-])C2=O | active: 67.9% |
| CC(Cc1ccc(O)cc1)NCC(O)c1cc(O)cc(O)c1 (stereo not drawn) | active: 44.6% |
| CC1=NCCc2c1[nH]c1ccccc21 | active: 61.9% |
